Target: T1, hMC4R (Homo sapiens, UniProt P32245)
T1 construct: expressed in transfected cells; host or cells: HEK293T
Experiment: Intracellular cAMP signaling (radioimmunoassay)
Type: cell-based
Details: HEK293T cells, reference set to 100

Protein sequences, listed by entry. Tags and fused reporters are not part of them.
UniProt P32245, whole entry: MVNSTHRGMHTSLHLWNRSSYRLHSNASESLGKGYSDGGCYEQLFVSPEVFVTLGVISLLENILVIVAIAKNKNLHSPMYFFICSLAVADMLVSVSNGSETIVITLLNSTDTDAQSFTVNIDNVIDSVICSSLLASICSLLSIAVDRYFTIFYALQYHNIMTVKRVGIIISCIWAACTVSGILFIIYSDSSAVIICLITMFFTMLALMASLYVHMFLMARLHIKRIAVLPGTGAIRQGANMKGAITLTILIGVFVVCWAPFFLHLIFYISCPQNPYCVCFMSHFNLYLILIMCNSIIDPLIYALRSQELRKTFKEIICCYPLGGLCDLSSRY

In the case of `O=C(N[C@H](Cc1ccc(Cl)cc1)C(=O)N1CCC(Cn2cncn2)(C2CCCCC2)CC1)[C@H]1Cc2ccccc2CN1` [THIQ, N-[(3R)-1,2,3,4-Tetrahydroisoquinolinium-3-ylcarbonyl]-(1R)-1-(4-chlorobenzyl)-2-[4-cyclohexyl-4-(1H-1,2,4-triazol-1-ylmethyl)piperidin-1-yl]-2-oxoethylamine], the “Rmax (cAMP)” value is reported as 100%.
